In general, IC50 refers to the concentration needed to halve the response being measured. Read a low IC50 as greater potency in that assay.

Amino acid sequences for entries named in this document (tags omitted). Chains listed by the source or under a name are the forms on record and can include a tag or linker.
UniProt P98170, other isoform, or with tags, fused parts or gaps: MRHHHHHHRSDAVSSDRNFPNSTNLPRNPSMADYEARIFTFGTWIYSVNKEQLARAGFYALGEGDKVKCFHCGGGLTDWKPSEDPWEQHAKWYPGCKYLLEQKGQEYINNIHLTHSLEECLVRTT
UniProt P98170, other isoform, or with tags, fused parts or gaps, stated change not applied: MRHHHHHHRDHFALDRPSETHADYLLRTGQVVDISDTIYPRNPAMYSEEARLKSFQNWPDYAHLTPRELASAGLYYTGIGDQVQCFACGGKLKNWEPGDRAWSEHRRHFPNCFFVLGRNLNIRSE

The record followed here is US9422332B2, “Azaheterocycles as BIR2 and/or BIR3 inhibitors” (Hoffmann-La Roche Inc., priority 2012, dated 2016).

In one assay the target is BIR3 domain of XIAP (Homo sapiens (Human), UniProt P98170). Briefly: TR-FRET assay for BIR3 (inhibition of binding of XIAP BIR3 domain to Peptide A). The note with it: 6x His-tagged BIR3 domain (aa 241-356 of XIAP), 20 nM Peptide A. The procedure:
(§1) TR-FRET Assay for BIR2 and BIR3
(§2) The peptides were labeled with the fluorescent tags FITC or TAMRA and Kd values were determined by fluorescence polarization assay. […] The peptide sequence was derivatized with biotin to provide […]-(ε-biotin)-OH 1:2 TFA as the substrate for the TR-FRET assay.
The sequence of the BIR3 domain used for the TR-FRET assay is
(§3) Time-resolved fluorescence resonance energy transfer (TR-FRET) signals were measured 1 hour later at room temperature. Test compound potency was assessed at 10 serially diluted concentrations. Percentage of inhibition at each concentration was determined to generate an IC50 value for each test compound.

In a further assay the target is BIR2 domain of XIAP (Homo sapiens (Human), UniProt P98170, C202A/C213G). As to the kind of experiment: TR-FRET assay for BIR2 (inhibition of binding of XIAP BIR2 domain to Peptide A). As to conditions: 6x His-tagged BIR2 domain (aa 124-240 of XIAP), 20 nM Peptide A. On the procedure:
as §1, §2
The XIAP protein sequence was obtained from the SWISS-PROT protein sequence database and the BIR2 and BIR3 domains were derived from that. The sequence of the BIR2 domain used for the TR-FRET assay is
as §3
In general terms: TR-FRET usually uses a lanthanide donor and a delayed reading to cut background.

Counter-ions that a name gives are not always drawn.

On to `CN[C@@H](C)C(=O)N[C@H](C(=O)N1Cc2ccccc2C1C(=O)Nc1ccccc1)C(C)C` (stereo partly drawn) [Example 16, 2-((S)-3-methyl-2-((S)-2-(methylamino)propanamido)butanoyl)-N-phenylisoindoline-1-carboxamide hydrochloride], for which the values for the half-inhibitory concentration (IC50) on BIR3 domain of XIAP and on BIR2 domain of XIAP were > 54800 nM and 233 nM, respectively.

Take `CC[C@H](C)[C@H](NC(=O)[C@H](C)NC)C(=O)N1CCc2ccccc2[C@H]1C(=O)Nc1c(F)cccc1F` [Example 15, (S)-N-(2,6-difluorophenyl)-2-((2S,3S)-3-methyl-2-((S)-2-(methylamino)propanamido)pentanoyl)-1,2,3,4-tetrahydroisoquinoline-1-carboxamide hydrochloride]: the concentration for half-maximal inhibition (IC50) at BIR3 domain of XIAP is > 54800 nM; on BIR2 domain of XIAP it was 13 nM.

On BIR2 domain of XIAP, `CN[C@@H](C)C(=O)N[C@H](C(=O)N1Cc2ccccc2[C@H]1C(=O)Nc1c(F)cccc1F)c1ccccc1` [Example 34, (S)-N-(2,6-difluorophenyl)-2-((S)-2-((S)-2-(methylamino)propanamido)-2-phenylacetyl)isoindoline-1-carboxamide hydrochloride] yielded a half-maximal inhibitory concentration (IC50) of 32 nM.

`CN[C@@H](C)C(=O)N[C@H](C(=O)N1Cc2ccccc2[C@H]1C(=O)Nc1c(F)cccc1F)C1CCOCC1` [Example 12, (S)-N-(2,6-difluorophenyl)-2-((S)-2-((S)-2-(methylamino)propanamido)-2-(tetrahydro-2H-pyran-4-yl)acetyl)isoindoline-1-carboxamide hydrochloride] returned an IC50 at BIR2 domain of XIAP of 14 nM.

In the case of `CN[C@@H](C)C(=O)N[C@H](C(=O)N1Cc2ccccc2[C@H]1C(=O)Nc1c(C)cccc1F)C(C)C` [Example 47, (S)-N-(2-fluoro-6-methylphenyl)-2-((S)-3-methyl-2-((S)-2-(methylamino)propanamido)butanoyl)isoindoline-1-carboxamide hydrochloride], the 50% inhibitory concentration (IC50) on BIR3 domain of XIAP was > 54800 nM; on BIR2 domain of XIAP it was 19 nM.

With `CN[C@@H](C)C(=O)N[C@H](C(=O)N1CCc2ccccc2[C@H]1C(=O)Nc1c(F)cccc1F)[C@@H](C)OC` [Example 39, (S)-N-(2,6-difluorophenyl)-2-((2S,3R)-3-methoxy-2-((S)-2-(methylamino)propanamido)butanoyl)-1,2,3,4-tetrahydroisoquinoline-1-carboxamide hydrochloride], the values for the 50% inhibitory concentration (IC50) on BIR3 domain of XIAP and on BIR2 domain of XIAP were > 54800 nM and 93 nM, respectively.

Take `CN[C@@H](C)C(=O)N[C@H](C(=O)N1CCc2cc(F)ccc2[C@H]1C(=O)Nc1c(F)cccc1F)C(C)C` [Example 6, 6-Fluoro-2-[(S)-3-methyl-2-((S)-2-methylamino-propionylamino)-butyryl]-1,2,3,4-tetrahydro-isoquinoline-1-carboxylic acid (2,6-difluoro-phenyl)-amide]: the figures for the half-maximal inhibitory concentration (IC50) at BIR3 domain of XIAP and on BIR2 domain of XIAP were > 54800 nM and 25 nM, respectively.

In the case of `CN[C@@H](C)C(=O)N[C@H](C(=O)N1CCc2cc(F)ccc2[C@@H]1C(=O)Nc1c(F)cccc1F)C(C)C` [Example 43, N-(2,6-difluorophenyl)-6-fluoro-2-((S)-3-methyl-2-((S)-2-(methylamino)propanamido)butanoyl)-1,2,3,4-tetrahydroisoquinoline-1-carboxamide], the concentration for half-maximal inhibition (IC50) was > 54800 nM on BIR3 domain of XIAP and 3480 nM at BIR2 domain of XIAP.

As to `CN[C@@H](C)C(=O)N[C@H](C(=O)N1CCc2ccccc2[C@H]1C(=O)Nc1c(F)cccc1F)C(C)(C)C` [Example 38, (S)-N-(2,6-difluorophenyl)-2-((S)-3,3-dimethyl-2-((S)-2-(methylamino)propanamido)butanoyl)-1,2,3,4-tetrahydroisoquinoline-1-carboxamide hydrochloride], the IC50 at BIR3 domain of XIAP was > 54800 nM; on BIR2 domain of XIAP it was 62 nM.
